Measured values published in patent US20260382585A1, “GLUCAGON-LIKE PEPTIDE 1 RECEPTOR AGONISTS” (published 2026).

Sequences of proteins named here, by UniProt entry; tags and fusion partners are left off. Residues count along the entry.
UniProt P43220, 24-463 limits assumed: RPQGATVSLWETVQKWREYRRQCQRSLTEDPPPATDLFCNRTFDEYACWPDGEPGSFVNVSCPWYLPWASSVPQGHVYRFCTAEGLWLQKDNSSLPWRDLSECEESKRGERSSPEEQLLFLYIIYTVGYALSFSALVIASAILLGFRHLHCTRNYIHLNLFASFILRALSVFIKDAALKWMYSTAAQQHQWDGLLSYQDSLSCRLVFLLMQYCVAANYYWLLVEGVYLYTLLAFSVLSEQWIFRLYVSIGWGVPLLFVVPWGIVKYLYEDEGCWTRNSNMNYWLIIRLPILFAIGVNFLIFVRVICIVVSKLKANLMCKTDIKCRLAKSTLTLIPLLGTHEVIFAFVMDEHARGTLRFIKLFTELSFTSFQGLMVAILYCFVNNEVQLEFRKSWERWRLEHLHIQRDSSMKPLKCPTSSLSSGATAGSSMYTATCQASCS

Columns and labels:
[1] = target: T1, human GLP-1R (Homo sapiens, UniProt P43220); experiment: Human GLP-1 Receptor HEK293 Cell cAMP Assay, 104 fmol/mg expression density; settings: for Emax / % Stim Max / EC50: HEK293 cell line, 104 fmol/mg GLP-1R; for Emax: fitted top of curve relative to maximal response to GLP-1(7-36)NH2, arithmetic mean ± SEM; for % Stim Max: point of maximal stimulation relative to maximal response of GLP-1(7-36)NH2, arithmetic mean (SEM, n); for EC50: read-out: relative EC50, intracellular cAMP response, 30 min at 37 °C, geometric mean (SEM, n); for potency compared with native GLP-1(7-36)NH2 peptide: 104 fmol/mg assay
[2] = target: T1, human GLP-1R; experiment: Human GLP-1 Receptor HEK293 Cell cAMP Assay, 581 fmol/mg expression density; settings: HEK293 cell line, 581 fmol/mg GLP-1R, value (SEM, n); for % Stim Max: relative to maximal response of human GLP-1(7-36)NH2; for EC50: read-out: relative EC50, intracellular cAMP response, 30 min at 37 °C
[3] = tested on: mice expressing human GLP-1R; experiment: In vivo Intraperitoneal Glucose Tolerance Test in Human GLP-1R Knock-In Mice

SMILES	Emax [1] [%]	% Stim Max [1]	EC50 [1] [nM]	% Stim Max [2]	EC50 [2] [nM]	potency compared with native GLP-1(7-36)NH2 peptide [1]	oral availability and potency as GLP-1R agonist in mice ([3]; human GLP-1R knock-in mice, IPGTT)	Blood glucose lowering ED50 ([3]; oral, overnight fasted mice, glucose 2 g/kg i.p. one hour post-dose, AUC of blood glucose over two hours, 95% confidence interval) [µg/kg]
COc1cc(C(=O)O)cc2c1nc(Cc1cc(F)c(-c3cccc(OCc4ccc(C#N)nc4)n3)cc1F)n2C[C@@H]1CCO1	81 ± 3	87.5 (1.54, n = 5) %	4.45	118 (2.96, n = 5) %	1.91	–	–	–
COc1cc(C(=O)O)cc2c1nc(Cc1cc(F)c(-c3cccc(OCc4ccc(C#N)cc4C)n3)cc1F)n2C[C@@H]1CCO1	75 ± 3	82.9 (3.52, n = 5) %	1.37	117 (6.8, n = 3) %	–	–	–	–
COc1cc(C(=O)O)cc2c1nc(Cc1cc(F)c(-c3cccc(OCc4cnn(C)n4)n3)cc1F)n2C[C@@H]1CCO1	71 ± 3	84.3 (2.62, n = 3) %	147	126 (4.66, n = 3) %	37.5	–	–	–
COc1cc(C(=O)O)cc2c1nc(Cc1cc(F)c(-c3cccc(OCc4ccc(-n5cncn5)cc4)n3)cc1F)n2C[C@@H]1CCO1	75 ± 4	84.4 (5.15, n = 5) %	1.44	117 (3.04, n = 3) %	–	–	–	–
COc1cc(C(=O)O)cc2c1nc(Cc1cc(F)c(-c3cccc(OCc4ccon4)n3)cc1F)n2C[C@@H]1CCO1	68 ± 2	76 (1.83, n = 4) %	220	110 (2.04, n = 4) %	52.4	–	–	–
COc1cc(C(=O)O)cc2c1nc(Cc1cc(F)c(-c3cccc(OCc4ccc(C#N)nc4C)n3)cc1F)n2C[C@@H]1CCO1	70 ± 5	87.9 (3.76, n = 4) %	10.6	121 (4.77, n = 4) %	3.18	–	–	–
COc1cc(C(=O)O)cc2c1nc(Cc1cc(F)c(-c3cccc(OCc4ccc(C#N)cn4)n3)cc1F)n2C[C@@H]1CCO1	80 ± 1	89.2 (2.36, n = 4) %	6.96	123 (2.13, n = 4) %	2.16	–	–	–
COc1cc(C#N)ccc1COc1cccc(-c2cc(F)c(Cc3nc4c(OC)cc(C(=O)O)cc4n3C[C@@H]3CCO3)cc2F)n1	78 ± 4	87.6 (3.51, n = 6) %	0.48	125 (5.29, n = 5) %	–	comparable potency	–	–
COc1cc(C(=O)O)cc2c1nc(Cc1cc(F)c(-c3cccc(OCc4ccn(C)n4)n3)cc1F)n2C[C@@H]1CCO1	72 ± 3	81.9 (2.95, n = 4) %	125	118 (4.46, n = 4) %	25.7	–	–	–
COc1cc(C(=O)O)cc2c1nc(Cc1cc(C)c(-c3cccc(OCc4ccc(C#N)cc4F)n3)cc1F)n2C[C@@H]1CCO1	74 ± 3	82.7 (3.85, n = 4) %	0.499	125 (3.95, n = 4) %	–	comparable potency	orally available potent GLP-1R agonist in mice	8
COc1cc(C(=O)O)cc2c1nc(Cc1cc(F)c(-c3cccc(OCc4ccc(C#N)cc4F)n3)cc1F)n2C[C@@H]1CCO1	80 ± 2	90.9 (2.98, n = 5) %	0.682	120 (3.39, n = 5) %	–	comparable potency	–	–
COc1cc(C(=O)O)cc2c1nc(Cc1cc(F)c(-c3cccc(OCc4ccc(C#N)s4)n3)cc1F)n2C[C@@H]1CCO1	68 ± 2	75.6 (1.62, n = 4) %	3.37	116 (3.39, n = 3) %	0.785	–	–	–
COCCOc1cc(C(=O)O)cc2c1nc(Cc1cc(F)c(-c3cccc(OCc4ccc(C#N)cc4F)n3)cc1F)n2C[C@@H]1CCO1	79 ± 3	91.6 (6.35, n = 4) %	0.724	123 (3.72, n = 4) %	–	comparable potency	–	–
COc1cc(C(=O)O)cc2c1nc(Cc1cc(F)c(-c3cccc(OCc4ccc(C(N)=O)nc4C)n3)cc1F)n2C[C@@H]1CCO1	66 ± 3	77.4 (4.52, n = 4) %	131	104 (6.13, n = 4) %	35.2	–	–	–
COCCOc1cc(C(=O)O)cc2c1nc(Cc1cc(F)c(-c3cccc(OCc4ccc(=O)n(C)c4)n3)cc1F)n2C[C@@H]1CCO1	70 ± 5	74.7 (5.06, n = 4) %	495	105 (4.63, n = 4) %	113	–	–	–
